Experimental data reported in patent publication US20230338545A1, “COMPLEXES OF MAGNESIUM MALTOL (3-HYDROXY-2-METHYL-4H-PYRAN-4-ONE) FOR ORAL SUPPLEMENTATION” (SYRACUSE UNIVERSITY, priority 2020, published 2023).

Test: Solubility in water
Settings: for solubility relative to that of the free ligand: complex vs. its ligand (maltol or ethylmaltol)

- solubility (Example 2 product): 3.33 mg/100 mL H2O
- solubility (at RT, water): 33.3 mg/mL
- solubility relative to that of the free ligand (water, listed as 1): approximately 2.8 ×
- solubility relative to that of the free ligand (water, listed as magnesium maltol): three times more soluble
- solubility (triplicate independent runs): 3.33±0.19 g per 100 mL of H2O
Substance: magnesium maltol [Complex 1]
